Measured values taken from patent US20230255976A1, “Novel Compounds for the Treatment, Alleviation or Prevention of Disorders Associated with Tau Aggregates” (AC Immune SA, priority 2018, published 2023).

Chains of the proteins cited; added tags and fusions are not shown. Residues count along the entry.
UniProt P10636, 561-689 limits assumed: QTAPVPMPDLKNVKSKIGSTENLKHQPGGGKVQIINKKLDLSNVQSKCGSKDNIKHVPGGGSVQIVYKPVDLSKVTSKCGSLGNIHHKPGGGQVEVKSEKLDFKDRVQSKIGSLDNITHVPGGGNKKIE

Target: Tau K18 fragment aggregates (amino acids 244 to 372 of human Tau441) (Homo sapiens, UniProt P10636)
Assay: Tau K18 disaggregation assay by ThT
Conditions: read-out: Tau K18 disaggregation EC50; 2 μM K18 aggregates, compounds 160 to 0.04 μM, 30 min RT, ThT fluorescence; tested form: HCl

For COC1CCN(c2ccc(N3CCc4c([nH]c5ccccc45)C3)cn2)CC1, the EC50 was < 10 µM.
